Our source for the kcat/Km, Km and kcat values is ChEMBL document CHEMBL1629679, “Extended-spectrum cephalosporinases in Pseudomonas aeruginosa” (2009).

Residue numbers refer to the chain shown, from its start.

Substrate in series [1]: CO[C@@]1(NC(=O)Cc2cccs2)C(=O)N2C(C(=O)O)=C(COC(N)=O)CS[C@@H]21
Kind of series: (§1) Ratio of Kcat to Km for Pseudomonas aeruginosa PDC-1 by spectrophotometer.

Substrate in series [2]: CC(=O)OCC1=C(C(=O)O)N2C(=O)[C@@H](NC(=O)Cc3cccs3)[C@H]2SC1
The description is as §1.

Substrate in series [3]: CC1(C)S[C@@H]2[C@H](NC(=O)[C@H](N)c3ccc(O)cc3)C(=O)N2[C@H]1C(=O)O
The description is as §1.

Substrate in series [4]: CO[C@@]1(NC(=O)Cc2cccs2)C(=O)N2C(C(=O)O)=C(COC(N)=O)CS[C@@H]21
Kind of series: (§2) Activity at Pseudomonas aeruginosa PDC-1 by spectrophotometer.

Substrate in series [5]: CC(=O)OCC1=C(C(=O)O)N2C(=O)[C@@H](NC(=O)Cc3cccs3)[C@H]2SC1
The series is described as §2.

Substrate in series [6]: CC1(C)S[C@@H]2[C@H](NC(=O)[C@H](N)c3ccc(O)cc3)C(=O)N2[C@H]1C(=O)O
The description is as §2.

Substrate in series [7]: CC1(C)S[C@@H]2[C@H](NC(=O)Cc3ccccc3)C(=O)N2[C@H]1C(=O)O
Described as §2.

Substrate in series [8]: CO[C@@]1(NC(=O)Cc2cccs2)C(=O)N2C(C(=O)O)=C(COC(N)=O)CS[C@@H]21
In words: (§3) Ratio of Kcat to Km for Pseudomonas aeruginosa PDC-5 by spectrophotometer.

Substrate in series [9]: CC(=O)OCC1=C(C(=O)O)N2C(=O)[C@@H](NC(=O)Cc3cccs3)[C@H]2SC1
Described as §3.

Substrate in series [10]: CC1(C)S[C@@H]2[C@H](NC(=O)[C@H](N)c3ccc(O)cc3)C(=O)N2[C@H]1C(=O)O
The description is as §3.

Substrate in series [11]: CO/N=C(\C(=O)N[C@@H]1C(=O)N2C(C(=O)[O-])=C(C[N+]3(C)CCCC3)CS[C@H]12)c1csc(N)n1
The series is described as §3.

Substrate in series [12]: CO[C@@]1(NC(=O)Cc2cccs2)C(=O)N2C(C(=O)O)=C(COC(N)=O)CS[C@@H]21
Kind of series: (§4) Activity at Pseudomonas aeruginosa PDC-5 by spectrophotometer.

Substrate in series [13]: CC(=O)OCC1=C(C(=O)O)N2C(=O)[C@@H](NC(=O)Cc3cccs3)[C@H]2SC1
The series is described as §4.

Substrate in series [14]: CC1(C)S[C@@H]2[C@H](NC(=O)[C@H](N)c3ccc(O)cc3)C(=O)N2[C@H]1C(=O)O
Described as §4.

Substrate in series [15]: CO/N=C(\C(=O)N[C@@H]1C(=O)N2C(C(=O)[O-])=C(C[N+]3(C)CCCC3)CS[C@H]12)c1csc(N)n1
The description is as §4.

Usually kcat/Km stands for the second-order rate constant that governs catalysis at low substrate concentration. Broadly, the Km is the substrate concentration at which the rate is half of its maximum. The term kcat denotes the number of substrate molecules converted per active site and unit of time at saturation.

B1: Beta-lactamase (Pseudomonas aeruginosa (strain ATCC 15692 / PAO1 / 1C / PRS 101 / LMG12228)), P24735 (protein)
chain: MRDTRFPCLCGIAASTLLFATTPAIAGEAPADRLKALVDAAVQPVMKANDIPGLAVAISLKGEPHYFSYGLASKEDGRRVTPETLFEIGSVSKTFTATLAGYALTQDKMRLDDRASQHWPALQGSRFDGISLLDLATYTAGGLPLQFPDSVQKDQAQIRDYYRQWQPTYAPGSQRLYSNPSIGLFGYLAARSLGQPFERLMEQQVFPALGLEQTHLDVPEAALAQYAQGYGKDDRPLRVGPGPLDAEGYGVKTSAADLLRFVDANLHPERLDRPWAQALDATHRGYYKVGDMTQGLGWEAYDWPISLKRLQAGNSTPMALQPHRIARLPAPQALEGQRLLNKTGSTNGFGAYVAFVPGRDLGLVILANRNYPNAERVKIAYAILSGLEQQGKVPLKR
As to B1, the kcat/Km in series [1] was 3e+07 M⁻¹ s⁻¹; in series [2], 5.1e+08 M⁻¹ s⁻¹; in series [3], 2.5e+07 M⁻¹ s⁻¹. Moreover, the figures for the Km in series [4], in [5] and in [6] were 0.5 µM, 85 µM and 20 µM, respectively. Also, the kcat in [4] came out at 0.015 s⁻¹; in series [5], 44 s⁻¹; in series [6], 0.5 s⁻¹; in series [7], 15 s⁻¹.

B2: Beta-lactamase (Pseudomonas aeruginosa), Q8RL90 (protein)
chain: B1 chain with R79Q, T105A
Consider B2, for which the kcat/Km was found to be 1.6e+08 M⁻¹ s⁻¹ in series [8], 2.3e+09 M⁻¹ s⁻¹ in series [9], 8e+07 M⁻¹ s⁻¹ in series [10] and 1.5e+06 M⁻¹ s⁻¹ in series [11]. Also, the Km in [12] was 0.5 µM; in series [13] it was 50 µM; in series [14], 30 µM. The kcat in series [12] came out at 0.08 s⁻¹; in series [13] it was 115 s⁻¹; in series [14] it was 2.5 s⁻¹; in series [15], 2.5 s⁻¹.
